Earlier results in US20220387435A1, “USE OF MULTI-TARGET PROTEIN KINASE INHIBITOR” (CSPC Zhongqi Pharmaceutical Technology (Shijiazhuang) Co., …, priority 2019, published 2022).
“Also recorded” adds a separate entry of the source.

System: FLT3, EGFR, Abl, Fyn, Hck, Lck, Lyn, Ret, Yes
Settings: similar products, prior art; cited from earlier work

CC(C)(C)c1cc(NC(=O)Nc2ccc(-c3cn4c(n3)sc3cc(OCCN5CCOCC5)ccc34)cc2)no1 [Quizartinib]
Non-FLT3 targets: c-KIT, PDGFR, and RET

CNC(=O)c1cc(Oc2ccc(NC(=O)Nc3ccc(Cl)c(C(F)(F)F)c3)cc2)ccn1 [Sorafenib]
Non-FLT3 targets: c-KIT, PDGFR,; also recorded: RAF, VEGFR
